Laboratory results reported in patent US11980618B2, “Nitric oxide releasing phosphodiesterase type 5 inhibitor” (NICOX S.A., priority 2018, dated 2024).

Experiments:
[1] = test system: ocular normotensive New Zealand white rabbits; test: Intraocular pressure (IOP) lowering effects in ocular normotensive New Zealand white rabbits (topical dosing, pneumatonometer); type: in vivo; details: Example 24, Table 3, topical 50 μL, 0.5 μmoles/eye (each compound)
[2] = test system: laser-induced ocular hypertensive non-human primates; test: Intraocular pressure (IOP) lowering effect in laser-induced ocular hypertensive non-human primates (topical dosing, pneumatonometer); type: in vivo

**Q.** O=C(O)CCOC[C@@H](CO[N+](=O)[O-])O[N+](=O)[O-] was tested. Which “IOP change (mmHg) E300 min” value ([1]; 300 min post-dosing, mean±SEM n=6-9) did it give?
**A.** The value was −0.08 ± 0.23 mmHg.

**Q.** And the “time post-dosing of Emax” value [1]?
**A.** Its value is 30 min.

**Q.** And the “IOP change (mmHg) Emax” value ([1]; change versus basal and vehicle, mean±SEM n=6-9)?
**A.** Its value is −2.88 ± 0.36 mmHg.

**Q.** What about the “IOP change (mmHg) E300 min” value ([2]; Example 22, Table 1, 300 min post-dose, topical 30 μL, 0.48 μmoles/eye (1.17 μmoles/eye for (IIIg)-OH), mean±SEM n=13) of the same compound?
**A.** The value was −2.8 ± 2.8 mmHg.

**Q.** What about the “time post-dosing of Emax” value ([2]; Example 22, Table 1, topical 30 μL, 0.48 μmoles/eye (1.17 μmoles/eye for (IIIg)-OH)) of the same compound?
**A.** Its value is 180 min.

**Q.** And the “IOP change (mmHg) Emax” value ([2]; Example 22, Table 1, topical 30 μL, 0.48 μmoles/eye (1.17 μmoles/eye for (IIIg)-OH), change versus basal and vehicle, mean±SEM n=13)?
**A.** The value was −6.0 ± 2.7 mmHg.

**Q.** And the “IOP change (mmHg) 30 min” value ([2]; Example 27, Table 6, 0.31 μmoles/eye (each compound), 30 μL topical, 30 min post-dose, mean±SEM n=13)?
**A.** Its value is −1.2 ± 0.7 mmHg.

**Q.** What about the “IOP change (mmHg) 60 min” value ([2]; Example 27, Table 6, 0.31 μmoles/eye (each compound), 30 μL topical, 60 min post-dose, mean±SEM n=13) of the same compound?
**A.** The value was −3.9 ± 1.5 mmHg.

**Q.** And the “IOP change (mmHg) 180 min” value ([2]; Example 27, Table 6, 0.31 μmoles/eye (each compound), 30 μL topical, 180 min post-dose, mean±SEM n=13)?
**A.** Its value is −2.4 ± 1.4 mmHg.

**Q.** And the “IOP change (mmHg) 300 min” value ([2]; Example 27, Table 6, 0.31 μmoles/eye (each compound), 30 μL topical, 300 min post-dose, mean±SEM n=13)?
**A.** Its value is −3.9 ± 1.6 mmHg.

**Q.** And the “IOP change (mmHg) 1440 min” value ([2]; Example 27, Table 6, 0.31 μmoles/eye (each compound), 30 μL topical, 1440 min post-dose, mean±SEM n=13)?
**A.** The value was −3.2 ± 1.6 mmHg.
